Experimental data taken from PMC2844127 (Journal of medicinal chemistry, 2010).

By UniProt entry, the sequences of proteins in these tests, tags left out.
UniProt P19020, whole entry: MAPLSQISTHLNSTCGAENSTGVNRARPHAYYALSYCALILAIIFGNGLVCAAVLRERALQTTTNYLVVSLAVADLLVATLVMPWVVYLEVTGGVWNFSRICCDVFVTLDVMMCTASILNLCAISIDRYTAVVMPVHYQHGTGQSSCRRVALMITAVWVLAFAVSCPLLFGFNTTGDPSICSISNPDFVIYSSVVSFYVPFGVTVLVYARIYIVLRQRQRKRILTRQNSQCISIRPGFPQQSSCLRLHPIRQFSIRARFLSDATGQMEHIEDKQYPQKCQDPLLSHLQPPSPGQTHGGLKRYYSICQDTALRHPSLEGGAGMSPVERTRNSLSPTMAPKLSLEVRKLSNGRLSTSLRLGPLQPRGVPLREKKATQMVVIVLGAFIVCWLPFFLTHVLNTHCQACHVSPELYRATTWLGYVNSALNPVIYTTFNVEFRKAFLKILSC

Target: dopamine rD3 receptor (Rattus norvegicus, UniProt P19020)
Details: ratio of Ki D2L to Ki D3

Q: How did the D2L/D3 turn out when `CCCN(CCC)C1CCc2c(O)cccc2C1` (single isomer, unassigned; (-)) [(−)-5-OH-DPAT, 5-Hydroxy-2-(dipropylamino)tetralin] was run?
A: 43.2
